Tests used:
[1] = biological target: human CD47 (human) (UniProt Q08722); assay: cell-based or functional assay
[2] = biological target: human CD47 (human) (UniProt Q08722); assay: FACS competition on Jurkat cells against 25 nM labelled SIRPα-Fc
[3] = biological target: human CD47 (human) (UniProt Q08722); assay: FACS binding to Jurkat cells (CD20-CD47+), % positive cells against protein concentration; value from the EC50 (nM) table beside the curves
[4] = biological target: human CD47 (human) (UniProt Q08722); assay: FACS competition on Jurkat cells: unlabelled SIRPα-Fc varied against 25 nM labelled SIRPα-Fc (sheet: SIRPa-Fc-FITC(25nM); text: biotin-SIRPα-Fc detected with FITC-streptavidin). The table prints no unit, nM is taken from the concentration axis

Chains of the proteins cited; added tags and fusions are not shown. Lines headed by an entry give the natural chain unless they say otherwise; changes in a name come on top.
UniProt Q5TFQ8: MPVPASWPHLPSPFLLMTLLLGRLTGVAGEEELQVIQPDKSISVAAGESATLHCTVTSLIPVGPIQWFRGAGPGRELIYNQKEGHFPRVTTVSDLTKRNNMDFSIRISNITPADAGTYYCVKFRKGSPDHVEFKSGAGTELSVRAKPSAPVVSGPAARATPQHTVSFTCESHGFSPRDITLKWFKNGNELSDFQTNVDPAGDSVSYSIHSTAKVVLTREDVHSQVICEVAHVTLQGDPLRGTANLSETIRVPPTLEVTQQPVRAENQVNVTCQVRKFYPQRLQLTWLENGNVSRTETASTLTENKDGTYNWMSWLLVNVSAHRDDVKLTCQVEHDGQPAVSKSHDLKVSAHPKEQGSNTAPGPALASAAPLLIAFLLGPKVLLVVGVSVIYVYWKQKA

phagocytosis of HL-60 cells by mouse macrophage cell line Ana-1, EC50 [1]: 0.14 mg/L | IC50 (read off the curve) [2]: 20 nM | EC50 [3]: 0.03 nM | IC50 [4]: 18.8 nM
Substance: SIRPα-Fc (from UniProt Q5TFQ8 30-163) (Fc fusion)

— patent US20200095339A1
